ChEMBL document CHEMBL4321820, “Identification and Optimization of Mechanism-Based Fluoroallylamine Inhibitors of Lysyl Oxidase-like 2/3” (J Med Chem, 2019)
Calls of active or inactive are those of the source. The calls are words filed in the database; no cut-off is given here.

Columns and labels:
[1] = biological target: T1, Lysyl oxidase homolog 2 (Homo sapiens) (UniProt Q9Y4K0); experiment: Inhibition of recombinant human C-terminal His-tagged […] (1-774 residues) expressed in mouse myeloma cells at 10XIC50 preincubated with bound enzyme for 30 mins followed by drug wash-out and later incubated with putrescine substrate and measured after 30 mins by Amplex-Red oxidation assay; assay type: cell-based
T1 sequence (whole entry): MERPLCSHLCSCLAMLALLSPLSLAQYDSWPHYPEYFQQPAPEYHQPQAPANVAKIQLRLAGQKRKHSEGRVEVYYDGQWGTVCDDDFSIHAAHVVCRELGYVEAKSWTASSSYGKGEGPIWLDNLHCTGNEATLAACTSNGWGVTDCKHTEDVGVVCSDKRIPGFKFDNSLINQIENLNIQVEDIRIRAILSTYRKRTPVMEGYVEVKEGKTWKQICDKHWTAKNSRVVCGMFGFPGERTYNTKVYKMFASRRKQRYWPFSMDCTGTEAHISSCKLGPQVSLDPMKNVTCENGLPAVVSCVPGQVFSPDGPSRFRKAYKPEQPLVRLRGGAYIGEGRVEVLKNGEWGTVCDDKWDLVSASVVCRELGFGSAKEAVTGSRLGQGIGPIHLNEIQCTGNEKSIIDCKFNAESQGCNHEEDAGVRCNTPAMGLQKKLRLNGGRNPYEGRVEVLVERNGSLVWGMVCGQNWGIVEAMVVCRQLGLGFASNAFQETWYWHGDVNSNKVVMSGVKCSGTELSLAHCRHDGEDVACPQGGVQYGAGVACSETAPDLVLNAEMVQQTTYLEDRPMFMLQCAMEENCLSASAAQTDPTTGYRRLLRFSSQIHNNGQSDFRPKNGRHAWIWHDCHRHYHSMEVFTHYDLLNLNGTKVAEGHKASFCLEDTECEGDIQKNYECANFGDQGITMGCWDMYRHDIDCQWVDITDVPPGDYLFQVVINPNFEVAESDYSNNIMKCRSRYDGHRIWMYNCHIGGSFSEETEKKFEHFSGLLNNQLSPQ

[2] = biological target: T1, Lysyl oxidase homolog 2 (Homo sapiens); experiment: Irreversible inhibition of recombinant human C-terminal His-tagged […] (1-774 residues) expressed in mouse myeloma cells assessed as maximal inhibition at 30XIC50 incubated for 60 mins followed by 100-fold dilution prior to addition of putrescine as substrate and measured after 30 mins by jump dilution assay based Amplex-Red oxidation assay relative to control
Outline: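 LOXL2 soaked 60 min at 37 °C with inhibitor at 30× IC50. Diluted 50-fold in assay buffer (1.2 M urea, 50 mM borate, pH 8.2), then 1:2 with reaction mix of Amplex Red 120 µM, HRP 1.5 U/mL and putrescine. Read out 30 min after substrate addition (ex 565/em 590, 37 °C). Percent activity followed over time after dilution.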

N#CCCN was tested, and the inhibition [1] was “Active” and the inhibition [2] was “Active”.
